# Apparent affinities of Ab-14 variants for a coronavirus HR2 peptide

Source: Li et al. 2023 (doi:10.1038/s41467-023-39022-2), MIT Lincoln Laboratory and A-Alpha Bio; data file from the FLAb repository.

The target is the same throughout: PDVDLGDISGINAS, from the HR2 region of SARS-CoV-2 spike.

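The parent was found by panning a naive human phage display library on the peptide. The variants were designed computationally from a first round of random CDR variants and then made and measured. Several design methods are mixed in this list. In AlphaSeq, yeast of one mating type display the scFv and yeast of the other type display the target. After mating in shaken culture at 30 °C for 16 h, diploids were selected and their barcode pairs sequenced. Each replicate has its own calibration line, from reference interactions of the BCL2 family. The assay was run in six technical replicates.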

Parent: Ab-14, a human scFv built as VH, three GGGGS repeats, VL. Only the CDRs of the heavy chain vary.
VH: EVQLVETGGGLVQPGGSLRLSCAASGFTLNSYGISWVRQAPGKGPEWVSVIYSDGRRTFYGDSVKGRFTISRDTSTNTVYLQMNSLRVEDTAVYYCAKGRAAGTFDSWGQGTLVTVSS
VL: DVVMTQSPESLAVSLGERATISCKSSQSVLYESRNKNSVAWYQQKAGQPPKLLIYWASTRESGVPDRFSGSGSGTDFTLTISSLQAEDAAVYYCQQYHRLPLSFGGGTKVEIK

The parent's heavy chain CDRs are GFTLNSYGIS, VIYSDGRRTFYGDSVK, GRAAGTFDS; each variant's own CDRs replace them letter for letter.
Each Kd is an estimate from the mating assay, the geometric mean of the replicates in which the pair was seen; lower is stronger.
Where no diploid with the target was found in any replicate, the entry reads "not detected": below detection, most likely a poor binder, though not proof of it.
The range of this assay differs from that of the first round, and the authors advise against merging the two.

CDR-H1,CDR-H2,CDR-H3,Kd (apparent),replicates with signal,empty controls
GFDLNEYGIS,VIYADGVRTFYADDVK,GNNAGTFDV,490 pM,6 of 6,0 of 18
KFTLNSYGIS,VIYSDGRRTFYSDSVK,GKTAGTFDS,11 nM,6 of 6,0 of 18
GFSLNSYGIS,VIYSDGRRTFYSDSVK,GQEAGTFDS,1.1 nM,6 of 6,0 of 18
GFDINEYGIS,VIYADGMRTAYADSVK,GEAAGTFDS,2.1 nM,6 of 6,0 of 18
GFTLNSYGIS,VIYSDGRRVFYGDSVK,ERAAGTFDS,1.3 µM,2 of 6,0 of 18
GFTLNSYGIS,VIYSDGKRTFYSDSVK,GQAAGTFDT,21 nM,6 of 6,1 of 18
GFDLNEYGIS,VIYADGRRTAYTDSVK,GSNAGTFDQ,1.1 nM,6 of 6,0 of 18
GNTLNSYGIS,VIYSDGRRTFYGDSVK,GRAAGLFDG,not detected,0 of 6,0 of 18
GFDLNEYGIS,VIYADGMRTAYVDSVK,GNQAGTFDT,250 pM,6 of 6,0 of 18
GFDLNEYGIS,VIYADGRRTAYHDSVK,GTNAGTFDQ,2.2 nM,6 of 6,0 of 18
GFDLNEYGIS,VIYADGQRTAYTDSVK,GANAGTFDQ,900 pM,6 of 6,0 of 18
GFDLDEYGIS,VIYADGKRTFYQDSVK,GNVAGTFDV,340 pM,6 of 6,0 of 18
GFSLNDYGIS,VIYSDGRRTLYIDSVK,GRAAGTFDS,130 nM,5 of 6,0 of 18
GFTLNSYGIS,VIYSDGRRTFYGDSVK,GRAAGFFDL,not detected,0 of 6,0 of 18
GFDLNSYGIS,VIYSDGRRTFYQDSVK,GRWAGTFDS,35 nM,5 of 6,0 of 18
GFTLNQYGIS,VIYSDGRRTFYHDSVK,GRLAGTFDT,3.2 nM,6 of 6,0 of 18
GFSLNSYGIS,VIYSDGKRTFYGDSVK,GNAAGTFDN,5.0 nM,6 of 6,1 of 18
GFNLNEYGIS,VIYADGLRANYTDSVK,GNNRIVRLD,2.0 µM,1 of 6,0 of 18
GFWLNSYGIS,VIYSDGRRTFYIDSVK,GQAAGTFDS,not detected,0 of 6,0 of 18
GFDLNSYGIS,VIYSDGRRTFYGDSVK,GEAAGTFDE,3.1 nM,6 of 6,0 of 18
GFNLNSYGIS,VIYSDGRRTFYTDSVK,GRNAGTFDS,5.6 nM,6 of 6,0 of 18
GFDLNEYGIS,VIYADGRRTAYVDSVK,GHNAGTFDV,1.1 nM,6 of 6,0 of 18
GRTLNSYGIS,VIYLDGRRTFYGDSVK,GRAAGTFDS,not detected,0 of 6,0 of 18
GFELNSYGIS,VIYSDGRRTFYTDSVK,GKTAGTFDS,11 nM,6 of 6,1 of 18
GFTLNSYGIS,VIYSDGRRTFYSDSVK,GRVAGTFDS,20 nM,11 of 12,0 of 36
GFDLNEYGIS,VIYADGMRTAYADSVK,GNVAGTFDK,320 pM,6 of 6,0 of 18
GFNLNEYGIS,VIYADGMRTFYTDSVK,GETAGTFIQ,1.2 nM,6 of 6,0 of 18
GFDLESYGIS,VIYADGSRTAYADSVK,GNVAGTFTL,390 pM,6 of 6,0 of 18
KFTLNEYGIS,VIYSDGRRTFYSDSVK,GRCAGTFDS,3.2 nM,6 of 6,0 of 18
GFTLNSYGIS,VIYSDGRRTHYGDSVK,GRNAGTFDS,1.3 µM,1 of 6,1 of 18
GFTLNRYGIS,VIYSDGRRTFYGDSVK,GGAAGTFDS,75 nM,3 of 6,0 of 18
GFDLNEYGIS,VIYADGVRTFYADSVK,GQLAGTFSV,460 pM,6 of 6,0 of 18
GFDLEDYGIS,VIYADGRRTAYADSVK,GEAAGTFDV,260 pM,6 of 6,0 of 18
GFDLNEYGIS,VIYADGKRTFYSDSVK,GEIAGTFIQ,300 pM,6 of 6,0 of 18
GFEIQEYGIS,VIYADGRRQAYAESFK,GTLGGTFST,3.1 nM,6 of 6,0 of 18
GFTLNSYGIS,VIYSDGMRTFYIDSVK,GRMALTFDS,9.2 nM,1 of 6,0 of 18
GFDLDEYGIS,VIYADGKRTAYADSVK,GQNAGTFDM,820 pM,6 of 6,1 of 18
GFTLNSYGIS,VIYSDGLRTFYGDAVK,GRHAGTFDS,12 nM,6 of 6,0 of 18
GFDLDEYGIS,VIYADGMRQAYADSVK,GNVAGTFDV,410 pM,6 of 6,0 of 18
GFDLNEYGIS,VIYADGRRTFYIDSVK,GQLAGTFDL,2.8 nM,6 of 6,1 of 18
GFTLNDYGIS,VIYADGRRTFYTDSVK,GRAAGTFVS,99 nM,3 of 6,1 of 18
GFSLNSYGIS,VIYSDGRRTFYGDSVK,LRAAGTFDS,not detected,0 of 6,0 of 18
GFSLEEFGIS,VIYADGFRAAYAQDVK,GGHAGHFVV,not detected,0 of 6,0 of 18
GFTLNEYGIS,VIYSDGQRTFYTDSVK,GRFAGTFDS,8.4 nM,6 of 6,0 of 18
GFTPNSYGIS,VIYSDGRRTFYQDSVK,GTAAGTYDS,280 nM,1 of 6,0 of 18
GFDLNEYGIS,VIYADGRRTFYADSVK,GNNAGTFLS,120 nM,6 of 6,1 of 18
GFTLNSYGIQ,VIYSDGRRTFYGDSVK,GIAAGFIDS,not detected,0 of 6,0 of 18
GFDLESYGIS,VIYADGRRTAYSDSVK,GENAGTFDI,670 pM,6 of 6,0 of 18
GFELNEYGIS,VIYSDGRRTFYADSVK,GRMAGTFDS,1.4 nM,6 of 6,0 of 18
GFTLNSFGIS,VIYSDGRRTQYGDSVK,GRAAGTFDS,not detected,0 of 6,0 of 18
GFDLNEYGIS,VIYADGMRTAYIDSVK,GNTAGTFDV,500 pM,6 of 6,0 of 18
GFSLNEYGIS,VIYSDGRRTFYGDDVK,GQAAGTFDS,2.4 nM,5 of 6,0 of 18
GFTLNSYGIS,VIYSDGRRTFYEDSVK,GRVAGTFDS,14 nM,5 of 6,0 of 18
GFTLNDYGIS,VIYSDGDRTQYIDSVK,GRAARTEDS,not detected,0 of 6,0 of 18
GFDLNEYGIS,VIYADGRRTFYADSVK,GEIAGTFNS,370 pM,6 of 6,0 of 18
GFHLNSYGIS,VIYSDGRRTFYGDSVK,GRTAGTFDT,31 nM,6 of 6,0 of 18
GFKLNSYGIS,VIYSDGRRTFYDDSVK,GQTAGTFDS,13 nM,5 of 6,0 of 18
GFDLNEYGIS,VIYADGMRTAYADNVK,GANAGTFDV,270 pM,6 of 6,0 of 18
GFTLNSYGIS,VIYSDGRRTFYGDSVK,GRHAGTFDS,31 nM,1 of 6,0 of 18
GFKLNSYGIS,VIYSDGRRTFYGDQVK,GKTAGTFDS,not detected,0 of 6,0 of 18
GFTLDSYGIS,VIYSDGRRTFYGDSVK,GWVAGTFDS,34 nM,5 of 6,0 of 18
GFTLNSYGIT,VIYSDGRRTFYKDSVK,GRAAGTFDS,not detected,0 of 6,0 of 18
GFDLNSYGIS,VIYSDGRRTFYGDSVK,GREAGIFNS,not detected,0 of 6,0 of 18
GFTLNMYGIS,VIYSDGRRTFYGDSVK,GRAAGTDDV,not detected,0 of 6,0 of 18
GFQLNEYGIS,VIYSDGRRTFYGDSVK,GWTAGTFDS,7.3 nM,4 of 6,0 of 18
GFDLQEYGIS,VIYADGKRRAYENKVK,GQSVGSVVI,not detected,0 of 6,0 of 18
GFELNSYGIS,VIYADGRRWFYGDSVK,GRAAGTFDS,6.4 nM,5 of 6,0 of 18
GFDLNEYGIS,VIYADGQRTYYADSVK,GETAGTFDV,180 pM,6 of 6,0 of 18
GFSLNDYGIS,VIYSDGRRTFYMDWVK,GRTAGTFDS,not detected,0 of 6,0 of 18
GFNLDEYGIS,VIYADGRRTAYQDSVK,GEVAGTFDS,280 pM,6 of 6,0 of 18
GFNLNSYGIS,VIYSDGRRTFYGDQVK,GREAGTFDS,3.8 nM,6 of 6,1 of 18
GFDLNSYGIS,VIYSDGRRTFYTDSVK,GKTAGTFDS,460 pM,6 of 6,2 of 18
GFDLNEYGIS,VIYADGMRTYYADSVK,GEVAGTFDV,1.4 nM,6 of 6,0 of 18
GFDLNSYGIS,VIYSDGRRTFYGDSVK,GRAAGYFMS,not detected,0 of 6,0 of 18
GFTLNSYGIS,VIYSDGRRTFYIDSVK,GRTAGTFDT,not detected,0 of 6,0 of 18
GFDLNEYGIS,VIYADGSRTAYSDSVK,GNQAGTFDI,640 pM,6 of 6,0 of 18
GFDLNEYGIS,VIYADGRRTFYADSVK,GHVAGTFIQ,19 nM,6 of 6,0 of 18
GFELNSYGIS,VIYSDGRRTFYTDSVK,GEQAGTFDS,22 nM,5 of 6,0 of 18

Extract of 8 entries:

CDR-H1,CDR-H2,CDR-H3,Kd (apparent),replicates with signal,empty controls
GFWLNSYGIS,VIYSDGRRTFYIDSVK,GQAAGTFDS,not detected,0 of 6,0 of 18
GFDLNEYGIS,VIYADGRRTFYADSVK,GHVAGTFIQ,19 nM,6 of 6,0 of 18
GFDLNEYGIS,VIYADGMRTAYADNVK,GANAGTFDV,270 pM,6 of 6,0 of 18
GFNLNEYGIS,VIYADGMRTFYTDSVK,GETAGTFIQ,1.2 nM,6 of 6,0 of 18
GFTLNSYGIS,VIYSDGRRTFYEDSVK,GRVAGTFDS,14 nM,5 of 6,0 of 18
GFDLNEYGIS,VIYADGMRTAYADSVK,GNVAGTFDK,320 pM,6 of 6,0 of 18
GFNLDEYGIS,VIYADGRRTAYQDSVK,GEVAGTFDS,280 pM,6 of 6,0 of 18
GFSLNSYGIS,VIYSDGRRTFYSDSVK,GQEAGTFDS,1.1 nM,6 of 6,0 of 18

Where one sequence has several entries in the source, the replicates are pooled.
Three control strains display no target. For all heavy chain designs, 1% of the pairings with them gave a signal, with a median of 120 nM and one signal in twenty below 7.0 nM, so weak values seen in few replicates may be background. For each scFv, signals with the empty controls are counted beside the result.
In the paper, a design with two or fewer of six values counts as a poor binder.